Experimental data reported in ChEMBL document CHEMBL1144732 (Bioorg Med Chem Lett, 2008).

Sequences of proteins named here, by UniProt entry; tags and fusion partners are left off. A change or cut given only in a name is not applied to a line headed by its entry.
UniProt P43166: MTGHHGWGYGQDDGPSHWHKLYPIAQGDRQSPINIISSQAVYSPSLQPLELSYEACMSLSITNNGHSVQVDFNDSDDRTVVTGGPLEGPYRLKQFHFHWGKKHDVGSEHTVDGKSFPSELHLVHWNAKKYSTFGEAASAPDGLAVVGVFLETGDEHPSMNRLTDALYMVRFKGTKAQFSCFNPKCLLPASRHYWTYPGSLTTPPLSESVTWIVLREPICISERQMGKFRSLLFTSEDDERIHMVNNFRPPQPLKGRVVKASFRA
UniProt O43570: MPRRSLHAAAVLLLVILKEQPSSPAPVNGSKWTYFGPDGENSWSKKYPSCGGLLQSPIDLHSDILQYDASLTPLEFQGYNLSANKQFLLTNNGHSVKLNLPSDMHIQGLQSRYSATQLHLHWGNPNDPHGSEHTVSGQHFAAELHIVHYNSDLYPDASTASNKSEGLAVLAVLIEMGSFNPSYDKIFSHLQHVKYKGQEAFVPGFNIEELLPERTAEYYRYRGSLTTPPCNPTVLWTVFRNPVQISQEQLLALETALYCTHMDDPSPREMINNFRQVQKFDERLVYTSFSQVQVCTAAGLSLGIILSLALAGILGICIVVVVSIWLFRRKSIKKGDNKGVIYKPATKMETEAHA

Legend:
Carbonic anhydrase 7 = Carbonic anhydrase 7 (Homo sapiens, UniProt P43166)
Carbonic anhydrase 12 = Carbonic anhydrase 12 (Homo sapiens, UniProt O43570)

Work on `NS(=O)(=O)c1cc(Cl)c(Cl)c(S(N)(=O)=O)c1` [DICHLORPHENAMIDE] yielded a Ki (Carbonic anhydrase 7) of 6 nM and a Ki (Carbonic anhydrase 12) of 56 nM.
